{
  "source": "patent US20140294763A1",
  "about": "“PEPTIDOMIMETIC PROTEASE INHIBITORS” (priority 2000, published 2014)",
  "test_system": "replicon cells",
  "assay": "XTT metabolic assay to determine replicon cell viability",
  "conditions": "concentrations employed in the Replicon Assay",
  "description": "Inflamation Research. […] It is assumed that the level of GAPDH mRNA, which is a constitutively expressed housekeeping gene, is the same in all viable cells. […] Thus, it is postulated, as done by others using TaqMan® technology to determine the levels of particular mRNAs in human cells, that GAPDH mRNA levels are proportional to viable cell numbers (VCN) in any given sample, with the relationship of VCN=2^̂(40−CtGAPDH mRNA). The VCN is computed for each of the Replicon Assay sample wells, and then we divide the HCV Replicon RNA copy number for a specific well by the VCN for that well. Once computed, this ratio is used instead of the HCV copy number to compute inhibition (“Avg. Inh using ratio”; FIG. 14A). […] In the Replicon Assay, it is assumed that the measured inhibition of HCV RNA replicon accumulation is the sum of the actual inhibition of HCV RNA replicon accumulation and the apparent inhibition of HCV RNA replicon accumulation due to cytoxicity. […] Thus, the true anti-HCV activity of a compound in the Replicon Assay corrected for general cytotoxicity can be estimated by dividing the number of HCV replicon RNA molecules measured in each sample by the VCN, thus normalizing to the number of viable cells in each sample. […] In FIG. 14A, “Avg.",
  "data": [
    {"smiles": "NC(=O)c1ncn([C@@H]2O[C@H](CO)[C@@H](O)[C@H]2O)n1", "note": "[Ribavirin, reference compound]", "values": [
      {"measurement": "cytotoxicity (XTT metabolic assay)", "value": "significant Ribavirin-induced cytotoxicity"}
    ]}
  ]
}
